The values that follow come from ChEMBL document CHEMBL1833821, “Defining the structural parameters that confer anticonvulsant activity by the site-by-site modification of (R)-N'-benzyl 2-amino-3-methylbutanamide” (J Med Chem, 2011).

For the test, the species on record is Rattus norvegicus. Briefly: Protective index, ratio of TD50 for albino Sprague-Dawley rat to ED50 for albino Sprague-Dawley rat by maximal electroshock seizures test. Format: functional. The procedure, abridged: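 Rat protective index calculated as behavioral toxicity TD50 divided by MES ED50, both after oral dosing of male Sprague-Dawley rats at the NINDS ASP.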
A general note: Protection in the maximal electroshock model is a classic sign of anticonvulsant action.

For `O=C1NC(=O)C(c2ccccc2)(c2ccccc2)N1` [PHENYTOIN], the PI is listed as >120.
